For two compounds, IC50 results are on record in BindingDB's records for doi:10.1021/bi035098j (Merck Research Laboratories, 2003).

Test [1] deals with T1, Tyrosine-protein phosphatase non-receptor type 1 [1-298] (Homo sapiens, UniProt P18031).
T1 construct: 1-298
T1 sequence (P18031 whole entry): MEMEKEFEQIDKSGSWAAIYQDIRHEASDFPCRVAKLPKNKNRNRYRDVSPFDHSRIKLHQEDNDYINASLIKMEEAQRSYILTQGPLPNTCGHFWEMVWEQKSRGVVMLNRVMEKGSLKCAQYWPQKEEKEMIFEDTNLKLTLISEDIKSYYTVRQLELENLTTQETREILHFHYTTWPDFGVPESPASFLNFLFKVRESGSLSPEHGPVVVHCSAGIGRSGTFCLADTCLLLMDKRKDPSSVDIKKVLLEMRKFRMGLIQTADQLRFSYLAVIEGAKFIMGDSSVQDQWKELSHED
Briefly: PTP1B and TCPTP Inhibition Assay. The settings on record: pH 6.3; 22 °C.

Test [2] addresses T2, Tyrosine-protein phosphatase non-receptor type 2 (Homo sapiens, UniProt P17706).
T2 sequence (P17706 whole entry): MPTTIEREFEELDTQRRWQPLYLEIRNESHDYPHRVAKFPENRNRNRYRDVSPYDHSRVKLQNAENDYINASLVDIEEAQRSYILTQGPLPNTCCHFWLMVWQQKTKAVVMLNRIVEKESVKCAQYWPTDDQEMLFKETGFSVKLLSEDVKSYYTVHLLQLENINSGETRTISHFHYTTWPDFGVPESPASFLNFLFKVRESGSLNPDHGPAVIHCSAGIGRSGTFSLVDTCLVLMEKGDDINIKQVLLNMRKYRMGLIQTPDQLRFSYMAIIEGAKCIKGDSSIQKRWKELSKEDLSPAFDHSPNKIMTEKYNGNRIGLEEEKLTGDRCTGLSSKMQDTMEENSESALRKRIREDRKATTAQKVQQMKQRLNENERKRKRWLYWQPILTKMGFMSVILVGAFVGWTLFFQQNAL
Briefly: PTP1B and TCPTP Inhibition Assay. The settings on record: pH 6.3; 22 °C.

SMILES strings stand for the structures.

As for `O=P(O)(O)c1cccc(-c2ccc(CC(Cc3ccc(C(F)(F)P(=O)(O)O)cc3)(c3ccccc3)n3nnc4ccccc43)cc2)c1` (stereo not drawn), the IC50 in test [1] and in test [2] was 3 nM throughout. On to `O=P(O)(O)C(F)(F)c1ccc(CC(Cc2ccc(C(F)(F)P(=O)(O)O)cc2)(c2ccccc2)n2nnc3ccccc32)cc1`, for which, in test [1], the 50% inhibitory concentration (IC50) worked out at 16 nM.

One may read the IC50 as the concentration that gives 50% inhibition.
